# Binding of CDR-mutated scFvs to a peptide of the spike HR2 region

Source: Li et al. 2023 (doi:10.1038/s41467-023-39022-2), MIT Lincoln Laboratory and A-Alpha Bio; data file from the FLAb repository.

Target: peptide PDVDLGDISGINAS, taken from heptad repeat 2 (HR2) of SARS-CoV-2 spike.

Parent: Ab-14, a human scFv built as VH, a 15-residue (Gly4Ser)3 linker, VL. Only the CDRs of the heavy chain vary.
VH: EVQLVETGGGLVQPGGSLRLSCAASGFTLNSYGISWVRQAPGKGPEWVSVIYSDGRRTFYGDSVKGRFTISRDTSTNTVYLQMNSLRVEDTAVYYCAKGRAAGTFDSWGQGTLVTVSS
VL: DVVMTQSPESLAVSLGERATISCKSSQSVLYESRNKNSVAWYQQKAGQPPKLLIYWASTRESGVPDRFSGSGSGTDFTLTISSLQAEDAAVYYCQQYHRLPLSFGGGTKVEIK

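The starting antibody came from a phage panning campaign against this peptide. The variants were designed computationally from a first round of random CDR variants and then made and measured. Group labels follow the data file (Ctrl: baseline library sampled from a position-specific scoring matrix, with some repeated check sequences; Rand: our label for a block that the file lists under HC and that is probably the random mutants of the ten best first-round binders; GP: Gaussian process model; GPLM: also part of the Gaussian process libraries; HC: hill climbing; Gen: genetic algorithm; Gibbs: Gibbs sampling; a sequence that several methods proposed may carry one label only). The scFvs were displayed on barcoded MATa yeast, the peptide on MATalpha yeast. The frequency of each diploid, read from paired DNA barcodes, reflects how well the two displayed proteins bind. A regression on co-assayed BCL2-family reference pairs converts the normalised counts of each replicate to an apparent Kd. Each pool was mated in six replicate cultures.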

The parent's heavy chain CDRs are GFTLNSYGIS, VIYSDGRRTFYGDSVK, GRAAGTFDS; each variant's own CDRs replace them letter for letter. This list holds designs with at most six substitutions. Numbers give log10(Kd / nM), so 0 is 1 nM and 3 is 1 µM. Smaller is tighter. The mean shown is taken over the replicates in which the pair was detected. A pair that was not seen in that replicate is written "nd"; this usually means weak binding, but a binder can also be missed. A sequence measured in both rounds can read differently, since the two assays cover different ranges. The authors averaged sequences with at least three values out of six and counted those with two or fewer as poor binders. Nonspecific signal, from three strains lacking the peptide, appeared in 1% of pairings of all heavy chain designs, centred on 2.08 (5% of these signals below 0.84); values are not corrected for it. Also given: how often the same scFv was detected with the empty control strains. The parent sequence was in this pool as ten entries: three were never detected, three once, and four in most replicates, with averages from 0.34 to 2.37.

The variant GFELNNYGIS / VIYSDGKRTFYGDSVK / GRTAGTFDS [GP_Gen] gave 0.63, 1.01, 2.31, nd, 0.90, 1.08 (mean 1.19; controls 0 of 18). With KFTLNSYGIS / VIYSDGWRTFYGDSVK / RRAAGTFDS [Ctrl] the result was nd, nd, nd, nd, nd, nd (controls 0 of 18). The variant KFTLNEYGIS / VIYSDGRRTFYGDSVK / GRAAGTFDQ [GP_HC] gave nd, nd, nd, 1.98, nd, nd (controls 0 of 18). With GFWLNDYGIS / VIYSDGRRTVYIDSVK / GRAAGTFDS [GP_HC] the result was nd, 2.18, nd, nd, 1.12, nd (mean 1.65; controls 0 of 18). The variant GFHLNSYGIS / VIYSDGRRTFYGDSVK / GRFAGTFNS [Ctrl] gave 0.86, 0.69, nd, 0.94, 1.20, 0.73 (mean 0.88; controls 0 of 18). For GFTINQQGIS / VIYSDGRRTYYGDSVK / GAQAGTFDS [Ctrl], the assay gave -0.30, -0.02, 0.82, -0.51, nd, 0.78 (mean 0.16; controls 0 of 18). For GFTLNSYGIS / VIYSDGKRTSYQDSVK / GHAAGTFDS [Ctrl], the assay gave nd, nd, 0.91, 0.44, nd, nd (mean 0.67; controls 0 of 18).

The variant GFTLNDYCIS / VDYSDGRRTFYGDSDK / GRAALTFIS [Rand] showed nd, nd, nd, nd, nd, nd (controls 0 of 18). The variant GFTLGSYGIS / VIYSDGIRTFYGDSVK / GRAAGTADV [Ctrl] gave nd, nd, nd, nd, nd, nd (controls 0 of 18). For GFTLNSYGIS / VIYSDGRRTFYLDSVK / GRAGGTFDT [Ctrl], the assay gave nd, nd, nd, 0.73, 1.65, 1.70 (mean 1.36; controls 0 of 18). The variant GFWLNEYGIS / VIYSDGRRTFYGDSVK / GRTAGTFDY [GP_Gibbs] showed nd, nd, 1.09, nd, nd, nd (controls 1 of 18). With GFSLNSYGIS / VIYSDGRRTFYGDSVK / GKTAGTFDG [GP_Gen] the result was 0.93, 1.46, 1.01, 1.05, 1.06, 0.98 (mean 1.08; controls 0 of 18). The variant GFELNSYGIS / VIYSDGRRTFYGDSVK / GSAAGTFDS [GPLM_Gibbs] showed 1.09, 1.02, 0.66, 0.81, 0.41, 0.76 (mean 0.79; controls 0 of 18). With GFQLNSYGIS / VIYSDGRRTFYSDSVK / GHVAGTFDS [GP_HC] the result was 0.39, -0.07, 0.14, 0.13, 0.01, 0.44 (mean 0.17; controls 0 of 18).

The variant GFVLNEYGIS / VIYSDGRRTFYGDSVK / GRAAGTFDQ [GP_HC] showed 1.98, 2.31, 2.70, 2.80, 1.94, 2.13 (mean 2.31; controls 0 of 18). The variant GFDLNSYGIS / VIYSDGRRTFYKDSVK / GRQAGTFDA [GP_Gen] gave 0.52, 0.23, 0.40, -0.17, 0.44, 1.08 (mean 0.42; controls 0 of 18). With GFSLNDYGIS / VIYSDGRRTFYGDSVK / GRAAWTFDS [GP_HC] the result was nd, nd, nd, nd, nd, nd (controls 0 of 18). The variant GFTLNEYGIS / VIYSDGRRTFYTDMVK / GRFAGTFDS [GP_HC] gave nd, nd, nd, nd, 0.88, nd (controls 1 of 18). The variant GFSLNSYGIS / VIYSDGRRTFYDDSVK / GMEAGTFDS [GP_HC] showed 0.24, 0.18, 0.33, 0.14, 0.09, 0.64 (mean 0.27; controls 1 of 18). For GNTLNEYGIS / VIYSDGRRTFYADSVK / GRAAGTFDS [Ctrl], the assay gave 0.97, 1.31, 1.03, 0.18, 0.53, 0.90 (mean 0.82; controls 1 of 18). For GFDLNSYGIS / VIYSDGRRTFYQDSVK / GVAAGTFDS [GP_Gen], the assay gave 0.63, 0.79, 0.93, 0.58, 1.00, 2.30 (mean 1.04; controls 0 of 18).

With GFTLNSYGIS / VIYSDGRRTSYGDSVK / GRAIGTFDS [Ctrl] the result was nd, nd, nd, nd, nd, nd (controls 1 of 18). The variant GFSLNSYGIS / VIYSDGKRTFYGDSVK / GNAAGTFDS [GPLM_Gibbs] gave -0.23, nd, -0.02, nd, nd, nd (mean -0.13; controls 0 of 18). For GFTLNSYGIS / VIYSDGRRTWTGDSVK / GRAPGTFDS [Ctrl], the assay gave 2.86, nd, 1.43, nd, 1.85, 2.45 (mean 2.15; controls 0 of 18). For GFTLNSYGIS / VIYSDGRRTFYSDRVK / GEAAGTFDT [GPLM_Gen], the assay gave 1.15, 1.29, 1.49, 0.56, 1.08, 0.99 (mean 1.10; controls 0 of 18). The variant GFDLNSYGIS / VIYSDGRRTMYIDSVK / GQAAGTFDS [GP_Gibbs] showed 0.48, -0.70, 0.44, -1.00, 0.72, 0.38 (mean 0.05; controls 0 of 18). The variant GFTLNSYGIS / VIYSDGMRTFYGDSVK / GRAAGTFDS [Ctrl] gave nd, 1.24, nd, nd, nd, nd (controls 0 of 18). With GFTINSYGIS / VIYSDGRRTFYSDSVK / GEAAGTFDS [GPLM_Gen] the result was nd, nd, nd, nd, nd, nd (controls 2 of 18).

The variant GLTLNSYGIS / VIYSDGRRTFYSDSVK / GRAAVTFDV [Ctrl] gave nd, nd, nd, nd, nd, nd (controls 0 of 18). The variant GFTLNSYGIS / VIYSDGRRTFMEDSVK / GKAMGTFDS [Ctrl] showed nd, nd, nd, nd, nd, nd (controls 0 of 18). With GFDLNSYGIS / VIYSDGLRTFYGDSVK / GRAAGTFHS [Ctrl] the result was 1.19, 1.66, 0.93, 1.08, 1.82, 1.38 (mean 1.34; controls 3 of 18). With GITLNNYGIS / VIYSDGRRTFYGDSVK / GEAAGTFDS [Ctrl] the result was 2.68, 1.61, 1.55, 2.18, 1.54, 1.47 (mean 1.84; controls 0 of 18). The variant GKTLNSYGIS / VIYSDGKRTFYADDVK / GRVAGTFDS [GP_Gibbs] showed 0.76, 1.18, 1.17, 0.98, 0.39, 0.86 (mean 0.89; controls 1 of 18). With GFTLNDYGIS / VIYSDGRRTFYIDRVK / GNAAGTFDS [GP_HC] the result was 1.67, 0.62, 0.62, 1.00, 1.06, 1.79 (mean 1.13; controls 0 of 18). With GFQLNDYGIS / VIYSDGRRTFYGDSVK / GRQAGTFDT [GP_Gen] the result was 0.94, 0.89, 1.10, 1.13, 0.50, 1.60 (mean 1.03; controls 0 of 18).

The variant GDTLRSYGIS / VIYSDGQRTAYGDSVK / GRAAGTFDS [Ctrl] gave 0.91, nd, nd, nd, nd, nd (controls 0 of 18). The variant GFTLNSYGIS / VIYSDGMRTFYGDSVK / GRTAGTFWS [GP_Gibbs] gave nd, nd, nd, nd, nd, nd (controls 0 of 18). With GFSLNEYGIS / VIYSDGRRTFYGDAVK / GQAAGTFDS [GPLM_Gibbs] the result was 0.30, -0.02, 0.47, -0.03, 0.21, 0.21 (mean 0.19; controls 0 of 18). The variant GFGLNEYGIS / VIYSDGRRTFYQDSVK / GKAAGTFDS [GP_Gen] showed nd, nd, nd, nd, nd, nd (controls 0 of 18).

For reference, 3 entries of the list once more:

CDR-H1,CDR-H2,CDR-H3,group,"log10 Kd, replicates","log10 Kd (nM), mean",empty controls
GFTINQQGIS,VIYSDGRRTYYGDSVK,GAQAGTFDS,Ctrl,"-0.30, -0.02, 0.82, -0.51, nd, 0.78",0.16,0/18
GFVLNEYGIS,VIYSDGRRTFYGDSVK,GRAAGTFDQ,GP_HC,"1.98, 2.31, 2.70, 2.80, 1.94, 2.13",2.31,0/18
GFTLNSYGIS,VIYSDGRRTFYLDSVK,GRAGGTFDT,Ctrl,"nd, nd, nd, 0.73, 1.65, 1.70",1.36,0/18